{"source": "ChEMBL document CHEMBL5137017", "about": "“Identification of NVP-CLR457 as an Orally Bioavailable Non-CNS-Penetrant pan-Class IA Phosphoinositol-3-Kinase Inhibitor” (J Med Chem, 2022)", "test_system": "U-87 MG", "details": "Homo sapiens, time 16.0 hrs"}
{"smiles": "C[C@H]1OC(=O)N(c2nc(-c3cnc(N)nc3C(F)(F)F)cc(N3CCOCC3)n2)[C@H]1CO", "values": [{"measurement": "IC90", "result": 507, "unit": "nM"}]}
